# Literature values, collected in PubChem BioAssay AID977610.
# Key:
# Experiment in all cases: PubChem AID 977610
# [1] = target: Acylneuraminate cytidylyltransferase; details: PDB protein-ligand complexes, literature Ki; protein: Acylneuraminate cytidylyltransferase; PDB entry 3E81
# [2] = target: Collagenase 3, MMP-13; details: PDB protein-ligand complexes, literature Ki; protein: Collagenase 3, MMP-13; PDB entry 3LJZ
# [3] = target: Mevalonate diphosphate decarboxylase; details: PDB protein-ligand complexes, literature Ki, protein: Mevalonate diphosphate decarboxylase
# [4] = target: Mevalonate diphosphate decarboxylase(D283A); details: PDB protein-ligand complexes, literature Ki; protein: Mevalonate diphosphate decarboxylase(D283A); PDB entry 4DU8
# [5] = target: E. coli EPSP synthase (T97I); details: PDB protein-ligand complexes, literature Ki; protein: E. coli EPSP synthase (T97I); PDB entry 3FJZ
# [6] = target: Farnesyl pyrophosphate synthase; details: PDB protein-ligand complexes, literature Ki; protein: Farnesyl pyrophosphate synthase; PDB entry 3RYW
# [7] = target: catalytic domain of TACE (TNF-alpha converting enzyme); details: PDB protein-ligand complexes, literature Ki; protein: catalytic domain of TACE (TNF-alpha converting enzyme); PDB entry 3LE9
# [8] = target: carbamoyl-phosphate synthase; details: PDB protein-ligand complexes, literature Ki; protein: carbamoyl-phosphate synthase; PDB entry 1BXR
# [9] = target: Toluene-4-monooxygenase system protein , T4moHD; details: PDB protein-ligand complexes, literature Ki; protein: Toluene-4-monooxygenase system protein , T4moHD; PDB entry 3Q2A
# [10] = target: xenotropic murine leukemia virus-related (XMVR) virus protease; details: PDB protein-ligand complexes, literature Ki; protein: xenotropic murine leukemia virus-related (XMVR) virus protease; PDB entry 3SM1
# [11] = target: Lipoprotein E, rP4; details: PDB protein-ligand complexes, literature Ki; protein: Lipoprotein E, rP4; PDB entry 3OCZ
# [12] = target: rat androgen receptor ligand binding domain; details: PDB protein-ligand complexes, literature Ki; protein: rat androgen receptor ligand binding domain; PDB entry 3G0W
# [13] = target: Alpha-N-acetylgalactosaminidase; details: PDB protein-ligand complexes, literature Ki; protein: Alpha-N-acetylgalactosaminidase; PDB entry 4DO4
# [14] = target: arylmalonate decarboxylase (AMDase) from Bordatella bronchiseptic; details: PDB protein-ligand complexes, literature Ki; protein: arylmalonate decarboxylase (AMDase) from Bordatella bronchiseptic; PDB entry 3IP8
# [15] = target: Ribose 5-phosphate isomerase, RpiB; details: PDB protein-ligand complexes, literature Ki; protein: Ribose 5-phosphate isomerase, RpiB; PDB entry 3K8C
# [16] = target: 2-enoyl-coa hydratase; details: PDB protein-ligand complexes, literature Ki; protein: 2-enoyl-coa hydratase; PDB entry 1DUB
# [17] = target: Proto-oncogene tyrosine-protein kinase Src; details: PDB protein-ligand complexes, literature Ki; protein: Proto-oncogene tyrosine-protein kinase Src; PDB entry 3UQG
# [18] = target: Calmodulin-domain protein kinase 1; details: PDB protein-ligand complexes, literature Ki; protein: Calmodulin-domain protein kinase 1; PDB entry 3UPZ
# [19] = target: Cathepsin B; details: PDB protein-ligand complexes, literature Ki; protein: Cathepsin B; PDB entry 3AI8
# [20] = target: protein-tyrosine phosphatase 1b; details: PDB protein-ligand complexes, literature Ki; protein: protein-tyrosine phosphatase 1b; PDB entry 1C85
# [21] = target: phosphoglycerate mutase 1; details: PDB protein-ligand complexes, literature Ki; protein: phosphoglycerate mutase 1; PDB entry 1BQ3
# [22] = target: Fructose-bisphosphate aldolase(Class II Fba from h. pylori); details: PDB protein-ligand complexes, literature Ki; protein: Fructose-bisphosphate aldolase(Class II Fba from h. pylori); PDB entry 3N9R
# [23] = target: serum paraoxonase; details: PDB protein-ligand complexes, literature Ki; protein: serum paraoxonase; PDB entry 3SRG
# [24] = target: calmodulin-sensitive adenylate cyclase; details: PDB protein-ligand complexes, literature Ki; protein: calmodulin-sensitive adenylate cyclase; PDB entry 1S26
# [25] = target: Phosphopantetheine Adenylyltranferase from M. tuberculosis(MtPPAT); details: PDB protein-ligand complexes, literature Ki; protein: Phosphopantetheine Adenylyltranferase from M. tuberculosis(MtPPAT); PDB entry 3NBA
# [26] = target: UDP-glucose 6-dehydrogenase, KpUgd; details: PDB protein-ligand complexes, literature Ki; protein: UDP-glucose 6-dehydrogenase, KpUgd; PDB entry 3PJG
# [27] = target: Mevalonate diphosphate decarboxylase(S192A mutant); details: PDB protein-ligand complexes, literature Ki; protein: Mevalonate diphosphate decarboxylase(S192A mutant); PDB entry 4DPU
# [28] = target: Mitogen-activated protein kinase 1; details: PDB protein-ligand complexes, literature Ki; protein: Mitogen-activated protein kinase 1; PDB entry 3I5Z
# [29] = target: Kinesin-like protein KIF1A; details: PDB protein-ligand complexes, literature Ki; protein: Kinesin-like protein KIF1A; PDB entry 2ZFI
# [30] = target: Biotin carboxylase; details: PDB protein-ligand complexes, literature Ki; protein: Biotin carboxylase; PDB entry 3RUP
# [31] = target: Sulfolobus tokodaii hexokinase; details: PDB protein-ligand complexes, literature Ki; protein: Sulfolobus tokodaii hexokinase; PDB entry 2E2P
# [32] = target: Biotin carboxylase(R16E mutant); details: PDB protein-ligand complexes, literature Ki; protein: Biotin carboxylase(R16E mutant); PDB entry 3RV4
# [33] = target: FAMILY GH92 INVERTING MANNOSIDASE BT3990; details: PDB protein-ligand complexes, literature Ki; protein: FAMILY GH92 INVERTING MANNOSIDASE BT3990; PDB entry 2WVZ
# [34] = target: alpha-mannosidase ii; details: PDB protein-ligand complexes, literature Ki; protein: alpha-mannosidase ii; PDB entry 1PS3
# [35] = target: Human glutamate carboxypeptidase II (GCPII); details: PDB protein-ligand complexes, literature Ki; protein: Human glutamate carboxypeptidase II (GCPII); PDB entry 2XEF
# [36] = target: phosphoglycerate kinase; details: PDB protein-ligand complexes, literature Ki; protein: phosphoglycerate kinase; PDB entry 16PK
# [37] = target: glutamate racemase; details: PDB protein-ligand complexes, literature Ki; protein: glutamate racemase; PDB entry 1B74
# [38] = target: Plasmodium falciparum M17 leucyl aminopeptidase; details: PDB protein-ligand complexes, literature Ki; protein: Plasmodium falciparum M17 leucyl aminopeptidase; PDB entry 3KR5
# [39] = target: hepatocyte growth factor receptor(HGF), Met kinase; details: PDB protein-ligand complexes, literature Ki; protein: hepatocyte growth factor receptor(HGF), Met kinase; PDB entry 3F82
# [40] = target: chimeric PDE5/PDE6 catalytic domain; details: PDB protein-ligand complexes, literature Ki; protein: chimeric PDE5/PDE6 catalytic domain; PDB entry 3JWR
# [41] = target: Estradiol 17-beta-dehydrogenase 1; details: PDB protein-ligand complexes, literature Ki; protein: Estradiol 17-beta-dehydrogenase 1; PDB entry 3HB4
# [42] = target: RNA-directed RNA polymerase NS5(YF-); details: PDB protein-ligand complexes, literature Ki; protein: RNA-directed RNA polymerase NS5(YF-); PDB entry 3EVF
# [43] = target: calpain; details: PDB protein-ligand complexes, literature Ki; protein: calpain; PDB entry 1ALW
# [44] = target: Protein tyrosine phosphatase 1B (PTP-1B); details: PDB protein-ligand complexes, literature Ki; protein: Protein tyrosine phosphatase 1B (PTP-1B); PDB entry 2ZN7
# [45] = target: thermolysin; details: PDB protein-ligand complexes, literature Ki; protein: thermolysin; PDB entry 1TLP
# [46] = target: ENDOPEPTIDASE, PEPTIDASE FAMILY M13; details: PDB protein-ligand complexes, literature Ki; protein: ENDOPEPTIDASE, PEPTIDASE FAMILY M13; PDB entry 3ZUK
# [47] = target: Beta-hexosaminidase; details: PDB protein-ligand complexes, literature Ki; protein: Beta-hexosaminidase; PDB entry 3SUV
# [48] = target: metallo-beta-lactamase; details: PDB protein-ligand complexes, literature Ki; protein: metallo-beta-lactamase; PDB entry 1A7T
# [49] = target: Retinol-binding protein 4 (RBP4); details: PDB protein-ligand complexes, literature Ki; protein: Retinol-binding protein 4 (RBP4); PDB entry 3FMZ
compound,measurement,setting,value
CC(=O)N[C@H]1[C@H]([C@H](O)[C@H](O)CO)O[C@](O)(C(=O)O)C[C@@H]1O,Ki,[1],37000 µM
O=C(C[C@@H](Cc1ccc(-c2ccc3c(c2)OCO3)cc1)C(=O)N[C@H]1c2ccccc2C[C@H]1O)NO,Ki,[2],0.0073 µM
O=C(O)[C@@H]1CCCN1C(=O)COP(=O)(O)OP(=O)(O)O,Ki,[3]; PDB entry 3QT6,4.3 µM
same,Ki,[3]; PDB entry 4DPY,4.3 µM
same,Ki,[4],4.3 µM
O=C(O)CNCP(=O)(O)O,Ki,[5],90 µM
CCCCCCCCCCOc1cncc(CC(P(=O)(O)O)P(=O)(O)O)c1,Ki,[6],0.57 µM
COc1ccc2[nH]n(C[C@@]3(c4ccccc4)NC(=O)NC3=O)c(=O)c2c1,Ki,[7],0.006 µM
Nc1ncnc2c1ncn2[C@@H]1O[C@H](COP(=O)(O)OP(=O)(O)NP(=O)(O)O)[C@@H](O)[C@H]1O,Ki,[8],400 µM
Nc1ccc(C(=O)O)cc1,Ki,[9],5 µM
CC(C)CC(=O)N[C@H](C(=O)N[C@H](C(=O)N[C@@H](CC(C)C)[C@@H](O)CC(N)=O)C(C)C)C(C)C,Ki,[10],1.44 µM
Nc1ncnc2c1ncn2[C@@H]1O[C@H](COP(O)(O)=S)[C@@H](O)[C@H]1O,Ki,[11],0.035 µM
Cc1c(N=C2O[C@@H](C(F)(F)F)[C@@H]3[C@@H](O)CCN23)ccc(C#N)c1Cl,Ki,[12],0.0003 µM
CC(=O)N[C@H]1CN[C@H](CO)[C@H](O)[C@@H]1O,Ki,[13],0.051 µM
O=P(O)(O)Cc1ccccc1,Ki,[14],5200 µM
O=C(NO)[C@H](O)[C@H](O)COP(=O)(O)O,Ki,[15],1200 µM
CC(=O)CC(=O)SCCNC(=O)CCNC(=O)[C@H](O)C(C)(C)COP(=O)(O)OP(=O)(O)OC[C@H]1O[C@@H](n2cnc3c(N)ncnc32)[C@H](O)[C@@H]1OP(=O)(O)O,Ki,[16],1.6 µM
Nc1ncnc2c1cnn2CC1CCNCC1,Ki,[17],10 µM
same,Ki,[18],2.5 µM
O=[N+]([O-])c1ccc(O)c2ncccc12,Ki,[19],154 µM
O=C(O)C(=O)Nc1ccccc1C(=O)O,Ki,[20],23 µM
O=P(O)(O)OC1C(OP(=O)(O)O)C(OP(=O)(O)O)C(OP(=O)(O)O)C(OP(=O)(O)O)C1OP(=O)(O)O (stereo unspecified),Ki,[21],4 µM
O=C(COP(=O)(O)O)N(O)CCCCO,Ki,[22],0.07 µM
O=c1ccc2ccccc2[nH]1,Ki,[23],2 µM
Nc1ncnc2c1ncn2[C@@H]1O[C@H](COP(=O)(O)CP(=O)(O)OP(=O)(O)O)[C@@H](O)[C@H]1O,Ki,[24],850 µM
same,Ki,[25],388 µM
O=C(O)[C@H]1O[C@H](OP(=O)(O)OP(=O)(O)OC[C@H]2O[C@@H](n3ccc(=O)[nH]c3=O)[C@H](O)[C@@H]2O)[C@H](O)[C@@H](O)[C@@H]1O,Ki,[26],283 µM
O=C(O)C[C@@](O)(CF)CCOP(=O)(O)OP(=O)(O)O,Ki,[27],0.05 µM
same,Ki,[3]; PDB entry 4DPT,0.05 µM
Cc1cnc(Nc2ccccc2)nc1-c1c[nH]c(C(=O)N[C@H](CO)c2ccccc2)c1,Ki,[28],0.002 µM
Nc1ncnc2c1ncn2[C@@H]1O[C@H](COP(=O)(O)OP(=O)(O)O)[C@@H](O)[C@H]1O,Ki,[29],350 µM
same,Ki,[30],27000 µM
same,Ki,[31],18 µM
same,Ki,[32],5000 µM
O=C1N[C@@H]2[C@@H](O)[C@@H](O)[C@H](O)[C@@H](CO)N2C1=O,Ki,[33],96 µM
same,Ki,[34],5200 µM
O=C(O)CC[C@H](NC(=O)N[C@@H](CCCCn1cc(COCCOCCOCCOCCOCCOCCOCCOCCNc2ccc([N+](=O)[O-])cc2[N+](=O)[O-])nn1)C(=O)O)C(=O)O,Ki,[35],0.000145 µM
Nc1ncnc2c1ncn2[C@@H]1O[C@H](COP(=O)(O)OP(=O)(O)C(F)(F)CCCC(F)(F)P(=O)(O)O)[C@@H](O)[C@H]1O,Ki,[36],6 µM
NC(=O)CC[C@@H](N)C(=O)O,Ki,[37],50000 µM
N[C@H](CCc1ccccc1)P(=O)(O)C[C@@H](Cc1ccccc1)C(=O)O,Ki,[38],0.013 µM
CCOc1ccn(-c2ccc(F)cc2)c(=O)c1C(=O)Nc1ccc(Oc2ccnc(N)c2Cl)c(F)c1,Ki,[39],0.0046 µM
CC(C)Cn1c(=O)n(C)c(=O)c2[nH]cnc21,Ki,[40],0.0085 µM
C[C@]12CC[C@@H]3c4ccc(O)cc4CC[C@H]3[C@@H]1C[C@H](Cc1cccc(C(N)=O)c1)[C@@H]2O,Ki,[41],0.0009 µM
Cn1c[n+]([C@@H]2O[C@H](COP(=O)([O-])O)[C@@H](O)[C@H]2O)c2nc(N)[nH]c(=O)c21,Ki,[42],0.17 µM
O=C(O)[C@@H](S)Cc1ccccc1,Ki,[43],0.3 µM
O=C(O)COc1c(C(=O)O)sc(-c2cccc(N(C(=O)c3ccccc3)C3CCCCC3)c2)c1Br,Ki,[44],0.013 µM
CC(C)C[C@H](NP(=O)(O)O[C@@H]1O[C@@H](C)[C@H](O)[C@@H](O)[C@H]1O)C(=O)N[C@@H](Cc1c[nH]c2ccccc12)C(=O)O,Ki,[45],0.028 µM
same,Ki,[46],0.035 µM
CC(=O)N[C@H]1CN[C@H](CO)[C@@H](O)[C@@H]1O,Ki,[47],28 µM
O=S(=O)(O)CCN1CCOCC1,Ki,[48],23000 µM
O=C(O)c1ccccc1NC(=O)N1CCC(c2ccccc2C(F)(F)F)CC1,Ki,[49],0.0083 µM
